In PubChem BioAssay AID1777 (Sanford-Burnham Center for Chemical Genomics, 2009) one finds activation data, which are given here for 93 compounds.

Sequences of proteins named here, by UniProt entry; tags and fusion partners are left off. A change or cut given only in a name is not applied to a line headed by its entry.
UniProt P41145: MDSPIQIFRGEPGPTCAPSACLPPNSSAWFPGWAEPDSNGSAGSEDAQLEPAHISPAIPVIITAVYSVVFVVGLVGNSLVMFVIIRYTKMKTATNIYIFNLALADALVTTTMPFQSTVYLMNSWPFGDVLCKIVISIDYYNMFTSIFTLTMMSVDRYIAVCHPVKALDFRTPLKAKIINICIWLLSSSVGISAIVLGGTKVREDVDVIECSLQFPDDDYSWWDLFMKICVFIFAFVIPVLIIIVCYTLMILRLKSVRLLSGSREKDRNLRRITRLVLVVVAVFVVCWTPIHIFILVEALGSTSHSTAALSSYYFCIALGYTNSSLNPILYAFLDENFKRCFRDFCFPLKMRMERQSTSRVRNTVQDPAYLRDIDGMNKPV

Some of the results follow. Measured potencies and affinities stand elsewhere. Activity calls are given as the source filed them. Rule as the data show it: active = activation above about 50% (passing the limit was not always enough); inactive = the rest.

This assay deals with Kappa-type opioid receptor (Homo sapiens) (UniProt P41145). Put plainly: kappa opioid receptor activators – cell-based, luminescence, uHTS, primary screen (AID 1777). The following applies: KOR beta-arrestin recruitment, at 10 µM, hits give high values.
Take `COc1ccc(-c2nn(-c3ccccc3)cc2C(=O)N2c3ccc(C)cc3C3CN(C)CCC32)cc1` (stereo not drawn): the activation is inactive: 1.7%.

As to `Nc1nonc1-c1nc2ccccc2n1CC(=O)N/N=C/c1ccc(-c2ccccc2C(=O)O)o1`, the activation was inactive: 9.1%. Under `CC(=O)NC(C)c1nc2ccccc2n1CC(=O)NC(C)CCc1ccccc1` (stereo not drawn) stands inactive: -3.1%; under `CCOC(=O)c1cccc(NC(=O)Cn2cnc3c2c(=O)n(C)c(=O)n3C)c1`, inactive: 0.2%. Turning to `Cn1c(=O)c2c(nc(CN3CCN(C(c4ccccc4)c4ccccc4)CC3)n2CC(N)=O)n(C)c1=O`, the activation is inactive: 3.9%. The figure for `CCc1cccc(C)c1NC(=O)CSc1nc2ccccc2n1CC(=O)N(C)C` is inactive: 8.2%; for `COc1ccc(N2CCn3c2nc2c3c(=O)n(CCc3ccccc3)c(=O)n2C)c(OC)c1` it is inactive: 4.9%. On to `CCN1C(=O)CC(n2c(C)nc3ccccc32)C1=O` (stereo not drawn), for which the activation was inactive: -10.2%. `CCc1ccc(NC(=O)Cn2cnc3c(=O)n(C)c(=O)n(C)c32)cc1`: the activation was inactive: -1.8%.

With `CCS(=O)(=O)c1nc2ccccc2n1CC(=O)N1CCCCC1`, the activation was inactive: -2.6%. The figure for `CCC(C(=O)NC1CCCCC1)n1c(SCc2cccc(F)c2)nc2ccncc21` (stereo not drawn) is inactive: -0.5%; for `CC(/C=N/NC(=O)Cn1cnc2c1c(=O)n(C)c(=O)n2C)=C\c1ccccc1` it is inactive: 0.2%; for `CC(C)C[C@H](NC(=O)N1CCn2c1nc1ccccc12)C(=O)N[C@H](Cc1ccccc1)C(=O)O` it is inactive: -5.3%. For `CC(C)c1ccccc1NC(=O)Cn1c(-c2ccccc2Cl)nc2ccccc21`, the activation is inactive: -2.3%. With `c1ccc(CNc2nc3ccccc3n2CCN2CCOCC2)nc1`, the activation was inactive: -9.4%.

As for `Cn1c(=O)n(CC(=O)N2CCOCC2)c2ccccc21`, the activation is inactive: 11.2%. On to `O=P(Nc1nccs1)(c1ccccc1)c1ccccc1`, for which the activation was inactive: 14%. Regarding `CC(C)C(=O)NC(Sc1ccccc1)C(Cl)(Cl)Cl` (stereo not drawn), the activation is inactive: -3.5%.

Turning to `COc1ccc(OCC(O)Cn2c(=N)n(CCN3CCCCC3)c3ccccc32)cc1` (stereo not drawn), the activation is inactive: -5.2%. Regarding `N#CCCN1CCn2c1nc1ccccc12`, the activation was inactive: -4.1%. Turning to `Cn1c(=O)c2ncn(CC(=O)N/N=C/c3ccco3)c2n(C)c1=O`, the activation is inactive: -5.7%.

Take `CC1CCCC(C)N1C(=O)Cn1c(SCC(=O)Nc2ccc3c(c2)OCO3)nc2ccccc21` (stereo not drawn): the activation is inactive: 1.8%. For the compound `Cn1c(=O)c2c(ncn2CC(=O)N2CCN(S(=O)(=O)c3ccccc3)CC2)n(C)c1=O`, the activation is inactive: 1.3%. The figure for `c1ccc2c(c1)nc1n2CCN1CCN1CCCC1` is inactive: 1.9%; for `CCN(CC)CCn1c(=N)n(CC(O)c2ccc(OC)c(OC)c2)c2ccccc21` (stereo not drawn) it is inactive: -3.2%.

With `O=C(c1cccs1)N1CCn2c1nc1ccccc12`, the activation was inactive: 6.2%. With `CCN(CC)CCn1c(=N)n(CC(O)COc2cccc(C)c2)c2ccccc21` (stereo not drawn), the activation was inactive: 0.1%.

In the case of `CC(C)C[C@H](NC(=O)N1CCn2c1nc1ccccc12)C(=O)NC1CC1`, the activation is inactive: 3.7%. The figure for `CCN(CC)C(=O)CSc1nc2ccccc2n1CC(=O)N1CCN(c2ccccc2OC)CC1` is inactive: -0.6%; for `c1nnnn1CCn1cnnn1` it is inactive: -2%. As to `CCC(=O)Nc1cccc(C(=O)/C=C/c2ccccc2)c1`, the activation is inactive: 2.5%. Regarding `CCN(CC)CCn1c(NCc2nc3ccccc3n2Cc2ccccc2)nc2ccccc21`, the activation is inactive: 9.7%. Turning to `CCOc1ccc(CCNC(=O)Cn2c(-c3nonc3N)nc3ccccc32)cc1OCC`, the activation is inactive: -1.3%. Take `CSc1nc2ccccc2n1CC(=O)Nc1cc(C(F)(F)F)ccc1N1CCOCC1`: the activation was inactive: -7%.

Consider `O=C(CCCCCNC(=O)N1CCn2c1nc1ccccc12)NCc1ccccc1`, for which the activation is inactive: 10.4%. `CCNC(=O)Cn1cnc2c1c(=O)n(C)c(=O)n2C`: the activation is inactive: -5.8%. With `O=C(Cn1c(CO)nc2ccccc21)Nc1cc(C(F)(F)F)ccc1N1CCOCC1`, the activation is inactive: -3.6%.

Take `Cc1ccc(NC(=O)Cn2c(/C=C/c3ccccc3)nc3ccccc32)cc1C`: the activation is inactive: 7.9%.

For the compound `Cc1ccc(-c2csc(N3CCC[C@@H]3C(=O)NCCn3c(-c4ccncc4)nc4ccccc43)n2)cc1`, the activation was inactive: -2.1%. For `O=C(Cn1cnc2ccccc21)N/N=C/c1ccccc1`, the activation is inactive: -4%. Regarding `CCOC(=O)Cn1c(=O)oc2cc(S(=O)(=O)N3CCn4c3nc3ccccc34)ccc21`, the activation was inactive: -1.9%.

Take `Cc1nc2ccc(S(=O)(=O)NC(C(=O)N3CCn4c3nc3ccccc34)C(C)C)cc2s1` (stereo not drawn): the activation is inactive: 1.8%. `CCN(CC)CCn1c(NC(=O)c2ccccc2O)nc2ccccc21`: the activation was inactive: 7%. Under `O=[As](O)(c1ccccc1)c1ccc(O)cc1` stands inactive: 4.2%. On to `O=C(Cn1c(=O)n(CC2CS2)c2ccccc21)N1CCCCC1` (stereo not drawn), for which the activation is inactive: 8.6%.

`CCOc1ccc(NC(=O)N2CCC(n3c(=O)[nH]c4ccccc43)CC2)cc1`: the activation is inactive: 1.2%. In the case of `Cc1nc2cc(C(F)(F)F)ccc2n1C1CCN(Cc2nnnn2Cc2cccs2)CC1`, the activation is inactive: -2.7%. Regarding `COCC(C)NC(=O)Cn1c(SCc2ccccc2)nc2ccccc21` (stereo not drawn), the activation is inactive: 1.4%.

As for `OC1(c2ccccc2)CCN(Cc2ccccc2)CC1`, the activation was inactive: -0.2%. Consider `N=c1n(CCN2CCOCC2)c2ccccc2n1CC(=O)c1ccc(Cl)c(Cl)c1`, for which the activation is inactive: -0.8%. The figure for `CCn1nccc1C(=O)Nc1nc2ccccc2n1CCN1CCCCC1` is inactive: -2.2%; for `O=[N+]([O-])c1ncn(CCn2cnc([N+](=O)[O-])n2)n1` it is inactive: 4.5%.

On to `CC(=O)NC(SC(=S)N(C)C)C(Cl)(Cl)Cl` (stereo not drawn), for which the activation is inactive: -1.8%. As for `O=[N+]([O-])c1ccc(O)c(/C=N/Nc2ccc([N+](=O)[O-])cc2[N+](=O)[O-])c1`, the activation was inactive: -4.7%. Turning to `CCOC(=O)C1=C(Cn2cnc3ccccc32)NC(=O)NC1c1cc(C)ccc1C` (stereo not drawn), the activation was inactive: -3.8%. For `O=C(Nc1cccc(F)c1)N1CCC(n2c(=O)[nH]c3ccccc32)CC1`, the activation is inactive: 2.7%. On to `O=C(OC1CN2CCC1CC2)c1cccc(Cl)c1` (stereo not drawn), for which the activation is inactive: -1.5%. Turning to `CCn1c(N)[n+](CC(=O)Nc2ccc(SC(F)F)cc2)c2ccccc21`, the activation is inactive: 0.3%. In the case of `CC(C)C[C@H](NC(=O)N1CCn2c1nc1ccccc12)C(=O)N[C@@H](Cc1ccccc1)C(=O)O`, the activation is inactive: -0.8%. The figure for `COc1ccc(N2C(=O)CC(N3CCC(n4c(=O)[nH]c5ccccc54)CC3)C2=O)cc1` (stereo not drawn) is inactive: 1.7%; for `O=C(Cn1c(CC(=O)N2CCCC2)nc2ccccc21)NCc1ccccc1` it is inactive: -0.7%; for `COCCOC(=O)C1=C(C)N=C2SCCC(=O)N2C1/C=C/c1ccccc1` (stereo not drawn) it is inactive: -8.6%. `Cc1ccc2c(c1)C1CN(C)CCC1N2C(=O)/C=C/c1ccc2c(c1)OCO2` (stereo not drawn): the activation was inactive: 0.2%. Turning to `COc1cc(C(=O)OCCn2c(=O)c3c(ncn3CCN(C)C)n(C)c2=O)cc(OC)c1OC`, the activation was inactive: 3.4%. For `CSCC[C@H](NC(=O)N1CCn2c1nc1ccccc12)C(=O)NCc1ccc(F)cc1`, the activation was inactive: 7.3%. For `Nc1ccc([As](=O)(O)c2ccc([N+](=O)[O-])cc2)cc1`, the activation is inactive: 4.4%. Under `N=c1n(CCO)c2ccccc2n1CCN1CCCCC1` stands inactive: -1.5%; under `O=C(Nc1ccccc1Cl)N1CCn2c(nc3ccccc32)C1`, inactive: -4.9%. The figure for `C(Cc1nn[nH]n1)Cc1nn[nH]n1` is inactive: 6.9%; for `COc1ccc(CCNC(=O)Cn2cnc3c2c(=O)n(C)c(=O)n3C)cc1OC` it is inactive: -0.4%. Under `Cn1c(=O)[nH]c(=O)c2c1nc(CN(Cc1ccccc1)Cc1ccccc1)n2CCN1CCOCC1` stands inactive: -3.5%.

Take `CN(C)C(=O)Cn1c(SCC(=O)NC2CCCCC2)nc2ccccc21`: the activation was inactive: 0.3%. Take `CC(=O)Nc1ccc2c(c1)nc1n2CCN(C(C)c2ccccc2)C1` (stereo not drawn): the activation is inactive: 1.6%. For `CCN(CC)CCn1c(NCc2ccccn2)nc2ccccc21`, the activation was inactive: 1.5%. `CCN(CC)CCn1c(N)nc2ccccc21`: the activation is inactive: 8.6%.

With `Cc1ccc(C(C(=O)NC2CCCCC2)N(Cc2ccco2)C(=O)Cn2cnc3ccccc32)cc1` (stereo not drawn), the activation was inactive: -4.7%.

Turning to `CC(O)CNc1nc2ccccc2n1CC(=O)NCC(F)(F)F` (stereo not drawn), the activation is inactive: -2.3%. For the compound `O=C(CSc1nc2ccccc2n1CC(=O)N1CCCC1)N1CCN(C(=O)c2ccco2)CC1`, the activation is inactive: -0.7%. For the compound `C[C@H](NC(=O)N1CCn2c1nc1ccccc12)C(=O)NCCc1ccccc1`, the activation was inactive: 1.2%.

`CCC(=O)Nc1ccc(NC(=O)/C=C/c2ccc(Cl)cc2)cc1`: the activation is inactive: -1%. Under `NC(=O)Cn1c2[n+](c3ccccc31)CC(O)CS2` (stereo not drawn) stands inactive: 3.8%; under `CCN(CC)CCn1c(=N)n(CC(=O)c2ccc(C)cc2)c2ccccc21`, inactive: -0.7%.

As to `O=P(Nc1ccccn1)(c1ccc(Br)cc1)c1ccc(Br)cc1`, the activation was inactive: -3.3%. On to `Cc1nnc(NC(=O)Cn2cnc3c2c(=O)n(C)c(=O)n3C)s1`, for which the activation is inactive: -7.3%. As to `Cc1ccc(/C=N/NC(=O)Cn2cnc3c2c(=O)n(C)c(=O)n3C)s1`, the activation is inactive: -0.3%. Turning to `CSc1ccccc1NC(=O)Cn1c(-c2cscn2)nc2ccccc21`, the activation was inactive: -4.5%. On to `O=C(Cn1cnc2ccccc21)N/N=C/c1ccccn1`, for which the activation is inactive: 0.8%. For the compound `CC(O)c1nc2ccccc2n1CC(=O)Nc1ccc2c(c1)OCCO2` (stereo not drawn), the activation is inactive: -1.7%. Regarding `CSCC[C@H](NC(=O)N1CCn2c1nc1ccccc12)C(=O)NCC1CCCO1` (stereo partly drawn), the activation is inactive: -3.9%. `CCOCN(C(=O)Cn1c(CO)nc2ccccc21)c1c(C)cccc1CC`: the activation is inactive: -1.2%. In the case of `Cc1nc2ccccc2n1CC(=O)NC1CCCC1`, the activation was inactive: -1.2%. The figure for `O=C(Cn1c2[n+](c3ccc(C(F)(F)F)cc31)CCCCC2)Nc1ccccc1` is inactive: 5%; for `Cc1ccc(Cn2nnnc2CN2CCC(n3nnc4ccccc43)CC2)cc1` it is inactive: 5.7%.
